Reference: article PMC10199925, “Cyclodextrin carboxylate improves the stability and activity of nisin in a wider range of application conditions” (NPJ Science of Food, 2023)

How the values were obtained:
[1] = Thermogravimetric analysis (TG/dTG); format: physicochemical; conditions: dry powder, N2 50 mL/min, 10 °C/min, 30 to 600 °C
Procedure: The thermal behavior of the nisin-SACD complexes was evaluated using a thermogravimetric (TG) analysis system (TGA2, Mettler–Toledo, Schwerzenbach, Switzerland) under N2 (50 mL/min) at a 10 °C/min heating rate over a temperature range from 30 to 600 °C.

[2] = previous study; cited from earlier work

succinic acid-β-cyclodextrin [SACD]
maximum decomposition peak temperature (dTG) [1]: 326 °C | weight loss at the end of heating (TG) [1]: ~67% | water dispersibility relative to β-CD [2]: over 50 fold
